# In publication PMC2982901 (Cancer chemotherapy and pharmacology, 2010):
# Read-outs that look alike come from different tables or passages of the source.
# Tests used:
# [1] = 5/2/5 schedule
# Panc-1 xenografts = details: Panc-1 xenograft, 5/2/5 schedule
substance,measurement,setting,value
7-butyl-10-amino-camptothecin-(20S) β-alanine-lysine [BACPTDP],22 Day survival,[1]; 2.5 mg/kg i.p.,3/3
same,Maximum body weight loss (%),[1]; 2.5 mg/kg i.p.,0%
same,22 Day survival,[1]; 5 mg/kg i.p.,3/3
same,Maximum body weight loss (%),[1]; 5 mg/kg i.p.,2%
same,22 Day survival,[1]; 10 mg/kg i.p.,2/3
same,Maximum body weight loss (%),[1]; 10 mg/kg i.p.,24%
same,22 Day survival,[1]; 20 mg/kg i.p.,0/3
same,toxicity assessment,[1]; doses of 2.5 and 5 mg/kg i.p.,well tolerated
same,toxicity assessment,[1]; doses of 10 and 20 mg/kg i.p.,toxic
same,Maximum body weight loss (%),Panc-1 xenografts; 4.5 mg/kg i.p.,6%
same,Maximum body weight loss (%),Panc-1 xenografts; 6.7 mg/kg i.p.,11%
same,Maximum body weight loss (%),Panc-1 xenografts; 8.0 mg/kg i.p.,21%
